Test results from patent publication US7863408B2, “Body fluid compatible and biocompatible resin” (Asahi Kasei Kabushiki Kaisha, priority 2002, dated 2011).
Like-named read-outs stand apart in the source and are kept apart here.

Legend:
[1] = Solubility in physiological saline; assay type: physicochemical; conditions: for dissolution ratio in terms of paclitaxel / dissolution ratio in terms of dexamethasone: physiological saline, 10 mg compound in 0.1 ml
[2] = Example 148; mouse plasma 37°C
[3] = Example 148; human plasma 37°C

Substance	dissolution of 10 mg compound in 0.1 ml of physiological saline ([1]; Example 145)	dissolution ratio in terms of paclitaxel ([1]; Example 145)	release of paclitaxel, compared to compound (197) [2]	release of paclitaxel, compared to compound (197) [3]	dissolution of 10 mg compound in 0.1 ml of physiological saline ([1]; Example 162)	dissolution ratio in terms of dexamethasone ([1]; Example 162)
carboxymethylated polyether-2′-Gly-Gly-Phe-Gly-paclitaxel [Compound (197)]	completely dissolved	4.5 mg/mL				
carboxymethylated polyether-2′-Gly-Phe-paclitaxel [(189)]	completely dissolved	4.0 mg/mL				
carboxymethylated polyether-2′-Gly-paclitaxel [Compound (177)]	completely dissolved	3.9 mg/mL				
carboxymethylated polyether-2′-Leu-paclitaxel [(181)]	completely dissolved	2.0 mg/mL				
carboxymethylated polyether-7-Gly-Gly-Phe-Gly-paclitaxel [(200)]	completely dissolved	5.0 mg/mL	moderate and sustained	moderate and sustained		
carboxymethylated polyether-21-Ala-dexamethasone [Compound (209)]					completely dissolved	3.5 mg/mL
carboxymethylated polyether-21-Ile-dexamethasone [(215)]					completely dissolved	3.0 mg/mL
carboxymethylated polyether-21-Leu-dexamethasone [(212)]					completely dissolved	4.0 mg/mL
